Source: US12152016B2, “Aryl hydrocarbon receptor modulators and uses thereof” (Beth Israel Deaconess Medical Center, Inc., priority 2018, dated 2024)

Target: T1, aryl hydrocarbon receptor (AHR) (Homo sapiens, UniProt P35869)
T1 sequence (P35869 11-848): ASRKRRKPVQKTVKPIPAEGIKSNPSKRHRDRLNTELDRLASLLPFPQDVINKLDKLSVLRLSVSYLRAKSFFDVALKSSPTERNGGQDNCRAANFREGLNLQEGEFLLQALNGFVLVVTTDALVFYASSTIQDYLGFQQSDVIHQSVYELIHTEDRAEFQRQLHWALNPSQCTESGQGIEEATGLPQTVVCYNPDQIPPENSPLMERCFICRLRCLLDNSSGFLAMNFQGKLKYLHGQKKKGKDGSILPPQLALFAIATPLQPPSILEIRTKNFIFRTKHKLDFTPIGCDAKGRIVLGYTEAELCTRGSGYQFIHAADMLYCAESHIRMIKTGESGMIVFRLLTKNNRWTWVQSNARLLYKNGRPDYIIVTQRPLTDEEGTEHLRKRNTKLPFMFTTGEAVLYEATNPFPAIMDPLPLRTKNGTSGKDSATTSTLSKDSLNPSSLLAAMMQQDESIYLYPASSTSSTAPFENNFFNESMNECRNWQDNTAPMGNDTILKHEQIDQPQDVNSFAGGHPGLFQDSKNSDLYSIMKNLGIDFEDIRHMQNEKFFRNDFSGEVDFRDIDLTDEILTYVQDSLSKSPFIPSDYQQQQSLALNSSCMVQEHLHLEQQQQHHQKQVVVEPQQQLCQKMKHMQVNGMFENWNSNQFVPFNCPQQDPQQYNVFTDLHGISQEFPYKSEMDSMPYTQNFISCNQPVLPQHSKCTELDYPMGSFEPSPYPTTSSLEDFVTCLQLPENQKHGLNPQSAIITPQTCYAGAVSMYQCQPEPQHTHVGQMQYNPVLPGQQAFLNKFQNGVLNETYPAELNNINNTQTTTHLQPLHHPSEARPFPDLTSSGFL
Assay: XRE-driven luciferase reporter assay, human HepG2

Row | EC50 (XRE luciferase EC50, Human HepG2, least square curve fitting, >10,000 = does not reach 50% of Emax of ITE at 10 μM (highest concentration tested)) | Compound | XRE luciferase Emax (fold) (Human HepG2, fold over vehicle)
1 | 860 nM | COC(=O)c1ccc(C(=O)c2c[nH]c3ccccc23)s1 [Compound 24] | –
2 | – | COC(=O)c1cccc(C(=O)c2c[nH]c3ccccc23)n1 [Compound 10, methyl 6-(1H-indole-3-carbonyl)pyridine-2-carboxylate] | 57 fold
